Assay: Effective concentration for stimulation of platelet aggregation

EC50: 11.7 µM
SMILES: CC(C)C[C@H](NC(=O)[C@H](CC(C)C)NC(=O)[C@H](Cc1ccccc1)NC(=O)CCN)C(=O)N[C@@H](CCCNC(=N)N)C(N)=O [(S)-2-[(S)-2-(3-Amino-propionylamino)-3-phenyl-propionylamino]-4-methyl-pentanoic acid [(S)-1-((S)-1-carbamoyl-4-guanidino-butylcarbamoyl)-3-methyl-butyl]-amide]

From BindingDB's records for doi:10.1021/jm960455s (Bristol-Myers Squibb Pharmaceutical Research Institute, 1997)
